The term % inhibition denotes the drop in the measured response relative to a control, in per cent.

The results in this text go back to patent US20160051695A1, “HER2 ANTIBODY-DRUG CONJUGATES” (AbGenomics International Inc., priority 2014, published 2016).

Values joined by “and” are separate entries in the source; they are usually repeats but may differ in a detail not shown here. Equal values may be shown once.

The test system of assay [1] is JIMT-1 breast cancer cells. In words: Binding of antibodies and Tap18Hr1 conjugates to cells, flow cytometry. Further details: species or system human. As to conditions: Unconjugated Ab, 3.3 μg/mL.
Assay [2] relates to SKOV-3 ovarian cancer cells. The assay is described as above. Further details: species or system human. Particulars: Unconjugated Ab, 3.3 μg/mL.
Assay [3] has as its system MDA-MB-453 breast cancer cells. The description is as above. Further details: species or system human. Particulars: Unconjugated Ab, 3.3 μg/mL.
Assay [4] concerns JIMT-1 breast cancer cells. In words: In vitro cytotoxicity assay: WST-1. Type of assay: cell-based, human. (Tetrazolium dyes change colour on reduction, which living cells bring about.)
The subject of assay [5] is NCI-N87 gastric cancer cells. In words: Binding of antibodies and Tap18Hr1 conjugates to cells, flow cytometry. Further details: species or system human. As to conditions: Unconjugated Ab, 3.3 μg/mL.
Assay [6] deals with NCI-N87 gastric cancer cells. In words: In vitro cytotoxicity assay: WST-1. It is filed as cell-based, human.
In assay [7] the test system is SKOV-3 ovarian cancer cells. In words: In vitro cytotoxicity assay: WST-1. Type of assay: cell-based, human.
The test system of assay [8] is MDA-MB-453 breast cancer cells. In words: In vitro cytotoxicity assay: WST-1. It is filed as cell-based, human. As to conditions: MDA-MB-453, 96 hours.

As for “Anti-HER2-IgG1: humanized anti-HER2 antibody, light chain SEQ ID NO. 9, heavy chain SEQ ID NO. 10 (trastuzumab sequences, human IgG1)”, the MFI was 1574 and 1550 and 1738 and 1026 in assay [1]; 8157 and 6206 in assay [2]; 8009 in assay [3]; 9871 and 9698 in assay [5]. Besides, the “% inhibition” value in assay [4] (1.25 μg/mL) was 7.2%; in assay [4] (5 μg/mL) it was 9.3%; in assay [6] (1.25 μg/mL) it was 36.9%; in assay [6] (5 μg/mL) it was 46.7%; in assay [7] (1.25 μg/mL) it was −2.9%; in assay [7] (5 μg/mL) it was 0.9%. In addition, the figures for the “% inhibition” value in assay [8] (1.25 μg/mL) and in assay [8] (5 μg/mL) were 56.8% and 58.9%, respectively.
